Biological target: L-lactate dehydrogenase B chain (Homo sapiens, UniProt P07195)

Amino acid sequences for entries named in this document (tags omitted).
UniProt P07195, whole entry: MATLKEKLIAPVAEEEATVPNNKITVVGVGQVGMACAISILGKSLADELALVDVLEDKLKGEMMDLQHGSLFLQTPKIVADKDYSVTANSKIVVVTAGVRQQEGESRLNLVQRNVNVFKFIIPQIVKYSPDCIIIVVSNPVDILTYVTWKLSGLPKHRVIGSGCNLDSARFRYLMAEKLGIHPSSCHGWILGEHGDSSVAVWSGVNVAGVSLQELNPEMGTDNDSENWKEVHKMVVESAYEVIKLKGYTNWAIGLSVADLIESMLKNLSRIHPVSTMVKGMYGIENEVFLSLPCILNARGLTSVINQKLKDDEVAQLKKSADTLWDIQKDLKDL

Structure (SMILES): Cc1cc2c(C(C)C)c(O)c(O)c(C=O)c2c(O)c1-c1c(C)cc2c(C(C)C)c(O)c(O)c(C=O)c2c1O [GOSSYPOL]
- Ki: 1.4 µM

Source: ChEMBL document CHEMBL3763153, “Recent Update on Human Lactate Dehydrogenase Enzyme 5 (hLDH5) Inhibitors: A Promising Approach for Cancer Chemotherapy” (J Med Chem, 2016)
